Test results: patent US9079913B2, “Spiro-oxindole MDM2 antagonists” (The Regents of the University of Michigan, priority 2009, dated 2015)
Where two headings read alike, the source gives them in different places.

Key:
[1] = test system: cancer cell lines with wild-type p53 / mutated or deleted p53 (ATCC); experiment: Cell growth assay (WST-8), other cancer cell lines; format: cell-based
[2] = test system: Isogenic HCT-116 colon cancer cell lines; experiment: cells; format: cell-based; conditions: Homo sapiens;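 note: cells grown in 96-well plates in McCoy's 5A medium with 10% FBS, exposed to compound for 4 days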
[3] = Homo sapiens, PC-3, read-out: PC-3 (deleted p53) IC50

CC(C)(C)C[C@H]1N[C@@H](C(=O)NC2CCC(O)CC2)[C@H](c2cccc(Cl)c2F)[C@@]12C(=O)Nc1cc(F)c(F)cc12 (stereo partly shown) [MI-786] showed an IC50 [1, 3] of 14400 nM and an IC50 ([1]; read-out: LNCAP (p53 wild-type) IC50) of 1200 nM.
In the case of CC(C)(C)C[C@H]1N[C@@H](C(=O)NC2CCC(O)CC2)[C@H](c2cccc(Cl)c2F)[C@@]12C(=O)Nc1cc(F)ccc12 (stereo partly shown) [MI-7105], the IC50 ([1]; Homo sapiens, LNCaP, read-out: LNCAP (p53 wild-type) IC50) is reported as under 3000 nM, the IC50 [1, 3] is reported as over 10000 nM and the IC50 ([1]; Homo sapiens, SJSA-1, read-out: SJSA-1 (p53 wild-type) IC50) is reported as under 3000 nM. It also gave an IC50 ([2]; HCT-116, read-out: HCT-116 (p53-/-) IC50) of over 10000 nM and an IC50 ([2]; HCT-116, read-out: HCT-116 (p53 wild-type) IC50) of under 3000 nM.
